In brackets after ≈: the same amount, converted by molar mass.
How the values were obtained:
HuDHFR = HuDHFR (Homo sapiens, UniProt P00374); experiment: Human DHFR enzyme inhibition (NADPH oxidation at 340 nm); assay type: biochemical; conditions: read-out: IC50 (nM) HuDHFR; triplicate, mean ± SD
[1] = test system: M. smegmatis (parent strain)
[2] = test system: M. smegmatis (Overexpressing DHFR Strain 1); experiment: MIC against M. smegmatis overexpressing DHFR, strain 1
[3] = test system: M. smegmatis (Overexpressing DHFR Strain 2); experiment: MIC against M. smegmatis overexpressing DHFR, strain 2

Chains of the proteins cited; added tags and fusions are not shown.
UniProt P00374, whole entry: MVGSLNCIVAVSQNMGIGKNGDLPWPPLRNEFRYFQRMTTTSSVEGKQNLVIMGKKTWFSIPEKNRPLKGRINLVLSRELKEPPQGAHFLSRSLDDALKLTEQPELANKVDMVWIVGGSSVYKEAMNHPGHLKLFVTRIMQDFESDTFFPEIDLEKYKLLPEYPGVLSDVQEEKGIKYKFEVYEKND

| Compound | IC50 (HuDHFR) [nM] | MIC (µg/mL) M. smegmatis (parent strain) [1] [µg/mL] | MIC (µg/mL) M. smegmatis (Overexpressing DHFR Strain 1) [2] [µg/mL] | MIC (µg/mL) M. smegmatis (Overexpressing DHFR Strain 2) [3] [µg/mL] |
| --- | --- | --- | --- | --- |
| CCc1nc(N)nc(N)c1C#CC(C)c1cc(-c2cnccn2)ccc1OC (centres unmarked) | 233 | 4 (≈ 10.7 µM) | 4 (≈ 10.7 µM) | 4 (≈ 10.7 µM) |
| CCc1nc(N)nc(N)c1C#CC(C)c1cc2c(c(-c3ccnc(Cl)c3)c1)OCO2 (centres unmarked) | 254 | – | – | – |
| CCc1nc(N)nc(N)c1C#C[C@H](C)c1cc(-c2cc(C)nc(C)c2)ccc1Cl | – | 0.25 (≈ 0.616 µM) | 64 (≈ 158 µM) | 32 (≈ 78.8 µM) |
| CCc1nc(N)nc(N)c1C#CC(C)c1cc(OC)cc(-c2ccccn2)c1 (centres unmarked) | 2200 | 4 (≈ 10.7 µM) | 128 (≈ 343 µM) | 64 (≈ 171 µM) |
| CCc1nc(N)nc(N)c1C#CC(C)c1cc2c(c(-c3ccncc3)c1)OCCO2 (centres unmarked) | 290 | 1 (≈ 2.49 µM) | 64 (≈ 159 µM) | 32 (≈ 79.7 µM) |
| CCc1nc(N)nc(N)c1C#CC(C)c1ccc(Nc2ccncc2)cc1OC (centres unmarked) | 290 | 4 (≈ 10.3 µM) | 32 (≈ 82.4 µM) | 32 (≈ 82.4 µM) |
| CCc1nc(N)nc(N)c1C#CCc1ccc(-c2ccc(CN)cc2)cc1OC | 284 | – | – | – |
| CCc1nc(N)nc(N)c1C#C[C@@H](C)c1cc2c(c(-c3ccncc3)c1)OCO2 | – | 1 (≈ 2.58 µM) | 64 (≈ 165 µM) | 64 (≈ 165 µM) |
| CCc1nc(N)nc(N)c1C#C[C@H](C)c1cc(-c2cc(C)nc(C)c2)ccc1OC(F)(F)F | 168 | 0.5 (≈ 1.1 µM) | 128 (≈ 281 µM) | 64 (≈ 141 µM) |
| CCc1nc(N)nc(N)c1C#CC(C)c1ccc(-c2ccncc2)cc1Cl (centres unmarked) | 106 | – | – | – |
| CCc1nc(N)nc(N)c1C#CC(C)c1cc(-c2cc[nH]c(=O)c2)ccc1OC (centres unmarked) | 625 | – | – | – |
| CCc1nc(N)nc(N)c1C#CC(C)c1cc(N2CCOCC2)ccc1OC (centres unmarked) | 229 | – | – | – |
| CCc1nc(N)nc(N)c1C#CCc1ccc(-c2ccncc2)cc1 | 1130 | – | – | – |
| CCc1nc(N)nc(N)c1C#CC(C)c1cncc(-c2cncn2C)c1 (centres unmarked) | 704 | – | – | – |
| CCc1nc(N)nc(N)c1C#CC(C)c1cc(OC)c(-c2ccncc2)c(OC)c1 (centres unmarked) | 215 | – | – | – |
| CCc1nc(N)nc(N)c1C#CC(C)c1cc(N2CCNCC2)ccc1OC (centres unmarked) | 395 | – | – | – |

Reference: article PMC5006990 (PLoS ONE, 2016)
